From PMC8942502 (Journal of Enzyme Inhibition and Medicinal Chemistry, 2022)

Amino acid sequences for entries named in this document (tags omitted).
UniProt P21397, whole entry: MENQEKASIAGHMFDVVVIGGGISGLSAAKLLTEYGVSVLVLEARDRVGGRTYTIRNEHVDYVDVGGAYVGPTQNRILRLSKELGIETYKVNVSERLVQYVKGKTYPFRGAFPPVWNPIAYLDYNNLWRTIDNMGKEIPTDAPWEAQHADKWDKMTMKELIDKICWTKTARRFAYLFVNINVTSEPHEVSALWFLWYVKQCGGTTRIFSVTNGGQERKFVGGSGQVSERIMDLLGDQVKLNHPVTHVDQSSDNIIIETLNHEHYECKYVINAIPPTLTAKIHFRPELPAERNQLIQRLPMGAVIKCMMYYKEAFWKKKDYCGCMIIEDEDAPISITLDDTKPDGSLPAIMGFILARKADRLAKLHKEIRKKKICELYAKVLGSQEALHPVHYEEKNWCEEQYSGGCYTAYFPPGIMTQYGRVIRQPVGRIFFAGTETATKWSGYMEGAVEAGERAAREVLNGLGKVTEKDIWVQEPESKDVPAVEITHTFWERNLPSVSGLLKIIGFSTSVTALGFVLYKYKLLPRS

How the values were obtained:
hMAO-A = target: T1, hMAO-A (Homo sapiens, UniProt P21397); assay: Anti-MAO assay (Amplex Red, p-tyramine); type: biochemical
T1 construct: purchased Sigma-Aldrich

LSD1-CoREST complex = assay: LSD1-CoREST inhibition assay (Amplex UltraRed/HRP, H3K4 peptide)

fold more potent against MAO-A than the corresponding para analog (hMAO-A; 5b vs 5a): 1.5 fold
MAO Selectivity Index (hMAO-A; IC50 MAO-B/IC50 MAO-A): 29.3
SMILES: Cl.NC1CC1c1ccc(NC(=O)c2cccc(-c3ccsc3)c2)cc1 (stereo not shown) [5b, N-(4-(2-Aminocyclopropyl)phenyl)-3-(thiophen-3-yl)benzamide hydrochloride]
LSD1 selectivity vs MAO-A (LSD1-CoREST complex; IC50 MAO-A/IC50 LSD1): 5.6
LSD1 selectivity vs MAO-B (LSD1-CoREST complex; IC50 MAO-B/IC50 LSD1): 164.0
